In patent US7771525B2, “Water-soluble azo compound or salt thereof, ink composition and colored product” (Nippon Kayaku Kabushiki Kaisha, priority 2006, dated 2010):

Conditions: pH 8

solubility in water: 50 to 100 mg/mL
Compound: COc1cc(N=Nc2cccc(S(=O)(=O)O)c2)ccc1NC(=O)Nc1ccc(N=Nc2cccc(S(=O)(=O)O)c2)cc1OC [C.I. Direct Yellow 132]
